# Assay results: PubChem BioAssay AID687001 (Broad Institute, 2013)
# Chains of the proteins cited; added tags and fusions are not shown. Lines headed by an entry give the natural chain unless they say otherwise; changes in a name come on top.
# UniProt P26447: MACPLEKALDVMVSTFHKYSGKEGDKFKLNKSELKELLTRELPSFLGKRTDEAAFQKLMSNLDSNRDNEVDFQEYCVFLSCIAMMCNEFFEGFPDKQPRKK
# Only a part is listed here, and it is no random draw. Results with a measured potency or affinity are listed apart. The source made the active and inactive calls.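 Rule for the calls: active = signal-lowering compounds whose fitted half-maximal concentration is at or below twice the top tested dose in every run; inconclusive = runs disagree, flat 30 to 70% inhibition, or poor curve fit; inactive = the rest.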
# Biological target: Protein S100-A4 (Homo sapiens) (UniProt P26447)
# Assay: S100A4-myosin IIA binding inhibitor potency, dose response, biochemical, fluorescence polarization, cherry-picked hits (AID 687001);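 note: 0% = DMSO neutral control wells and -100% = TFP positive control wells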
# Details: FP, S100A4/TAMRA-myosin IIA peptide binding; at 11 µM (top of the series)
row,Compound,"activity change, negative = inhibition"
1,CN(C(=O)Cc1ccccc1)C1CC[C@@]2(CCCO2)C[C@@H]1N1CCCC1 (stereo partly drawn),inactive: -0.381%
2,Cc1ccc(S(=O)(=O)N(CCCN)CCCc2c(C)nc(N)[nH]c2=O)cc1,inactive: -2.75%
3,CN(C)P(=O)(N(C)C)n1c(Nc2ccccc2)nnc1-c1ccccc1,inactive: -1.17%
